US9290459B1, “Substituted bicyclic dihydropyrimidinones and their use as inhibitors of neutrophil elastase activity” (Boehringer Ingelheim International GmbH, priority 2013, dated 2016)

By UniProt entry, the sequences of proteins in these tests, tags left out. Residues count along the entry.
UniProt P11712, whole entry: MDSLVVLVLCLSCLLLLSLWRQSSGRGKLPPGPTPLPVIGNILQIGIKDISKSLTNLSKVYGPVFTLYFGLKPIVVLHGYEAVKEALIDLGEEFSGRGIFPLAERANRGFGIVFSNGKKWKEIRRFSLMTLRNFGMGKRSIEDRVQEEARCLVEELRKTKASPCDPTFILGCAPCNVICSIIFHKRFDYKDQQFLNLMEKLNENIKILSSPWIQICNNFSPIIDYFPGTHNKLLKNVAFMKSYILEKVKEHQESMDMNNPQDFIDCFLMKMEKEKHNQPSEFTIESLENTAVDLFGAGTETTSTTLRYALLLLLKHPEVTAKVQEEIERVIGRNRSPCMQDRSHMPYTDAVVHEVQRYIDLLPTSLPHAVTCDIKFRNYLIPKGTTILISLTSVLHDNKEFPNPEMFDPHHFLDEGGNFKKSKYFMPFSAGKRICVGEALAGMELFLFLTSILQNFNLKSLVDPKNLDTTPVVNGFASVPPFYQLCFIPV
UniProt P33261, whole entry: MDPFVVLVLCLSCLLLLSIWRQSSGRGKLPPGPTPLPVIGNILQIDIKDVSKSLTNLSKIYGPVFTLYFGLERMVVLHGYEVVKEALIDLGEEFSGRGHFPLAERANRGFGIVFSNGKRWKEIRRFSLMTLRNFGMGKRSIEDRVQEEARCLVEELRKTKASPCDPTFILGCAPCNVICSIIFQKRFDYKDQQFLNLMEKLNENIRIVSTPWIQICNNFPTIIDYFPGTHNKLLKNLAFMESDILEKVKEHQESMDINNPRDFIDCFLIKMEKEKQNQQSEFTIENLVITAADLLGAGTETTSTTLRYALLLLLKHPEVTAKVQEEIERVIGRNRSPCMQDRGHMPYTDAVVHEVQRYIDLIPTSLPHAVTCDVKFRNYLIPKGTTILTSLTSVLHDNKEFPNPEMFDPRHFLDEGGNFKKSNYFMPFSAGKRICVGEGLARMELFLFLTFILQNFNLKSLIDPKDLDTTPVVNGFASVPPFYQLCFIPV
UniProt P08246, 30-247: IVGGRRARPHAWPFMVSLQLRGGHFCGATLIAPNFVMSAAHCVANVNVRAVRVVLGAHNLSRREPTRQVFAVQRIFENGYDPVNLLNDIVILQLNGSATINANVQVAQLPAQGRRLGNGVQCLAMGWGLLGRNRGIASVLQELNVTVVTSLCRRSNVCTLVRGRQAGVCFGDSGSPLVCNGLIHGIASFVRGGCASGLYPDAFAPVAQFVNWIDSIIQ

Tests used:
cytochrome P450 2C9 = cytochrome P450 2C9 (Homo sapiens (Human), UniProt P11712); details: read-out: CYP2C9 IC50; human liver microsomes, Diclofenac hydroxylation
cytochrome P450 2C19 = cytochrome P450 2C19 (Homo sapiens (Human), UniProt P33261); details: read-out: CYP2C19 IC50; human liver microsomes, (S)-Mephenytoin hydroxylation
[1] = molecular target: neutrophil elastase in human plasma (Homo sapiens (Human), UniProt P08246); assay: Neutrophil elastase inhibitory activity in human plasma (zymosan-stimulated blood); format: biochemical; details: neutrophil elastase enriched human plasma from zymosan-stimulated blood
[2] = molecular target: Human neutrophil elastase (Homo sapiens (Human), UniProt P08246); assay: Human Neutrophil Elastase Assay; details: substrate MeOSuc-Ala-Ala-Pro-Val-AMC 250 μM, pH 7.5

## N#Cc1ccc([C@@H]2C3=C(CCC3=O)N(c3cccc(C(F)(F)F)c3)C(=O)N2C(=O)NCCO)cc1 [Example 7.2A, (R)-4-(4-Cyanophenyl)-N-(2-hydroxyethyl)-2,5-dioxo-1-(3-(trifluoromethyl)phenyl)-4,5,6,7-tetrahydro-1H-cyclopenta[d]pyrimidine-3(2H)-carboxamide]
Cytochrome P450 2C9
  IC50: > 50000 nM
Cytochrome P450 2C19
  IC50: > 50000 nM

## CN1C(=O)N(c2cccc(C(F)(F)F)c2)C2=C(C(=O)CC2)[C@H]1c1ccc(C#N)cc1 [Example 2A, (R)-4-(3-Methyl-2,5-dioxo-1-(3-(trifluoromethyl)phenyl)-2,3,4,5,6,7-hexahydro-1H-cyclopenta[d]pyrimidin-4-yl)benzonitrile]
[1]
  EC50: 3 nM

## CS(=O)(=O)CCNC(=O)N1C(=O)N(c2cccc(C(F)(F)F)c2)C2=C(C(=O)CC2)C1c1ccc(C#N)cc1F (stereo not shown) [Example 49.3]
[2]
  IC50: 1 nM
[1]
  EC50: 7 nM

## CC(C)NC(=O)N1C(=O)N(c2cccc(C(F)F)c2)C2=C(C(=O)CC2)C1c1ccc(C#N)cc1S(C)(=O)=O (stereo not shown) [Example 53.4]
[2]
  IC50: < 1 nM
[1]
  EC50: < 1 nM
